The nature of this experiment: Inhibition of Toxoplasma gondii thymidylate synthase.

For the compound `Nc1nc2[nH]cc(CCc3ccc(C(=O)N[C@@H](CCC(=O)O)C(=O)O)cc3)c2c(=O)[nH]1` [PEMETREXED], it took 2800 nM to reach half-maximal inhibition (IC50).

The record behind these values is ChEMBL document CHEMBL1140703, “Design, synthesis, and biological evaluation of classical and nonclassical 2-amino-4-oxo-5-substituted-6-methylpyrrolo[3,2-d]pyrimidines as dual thymidylate synthase and dihydrofolate reductase inhibitors” (J Med Chem, 2008).
